Test results: patent publication US20090215774A1, “USES OF INDANE COMPOUNDS” (H. LUNDBECK A/S, priority 2008, published 2009)

The chains behind the UniProt entries cited, without tags or fusion partners.
UniProt P23977, whole entry: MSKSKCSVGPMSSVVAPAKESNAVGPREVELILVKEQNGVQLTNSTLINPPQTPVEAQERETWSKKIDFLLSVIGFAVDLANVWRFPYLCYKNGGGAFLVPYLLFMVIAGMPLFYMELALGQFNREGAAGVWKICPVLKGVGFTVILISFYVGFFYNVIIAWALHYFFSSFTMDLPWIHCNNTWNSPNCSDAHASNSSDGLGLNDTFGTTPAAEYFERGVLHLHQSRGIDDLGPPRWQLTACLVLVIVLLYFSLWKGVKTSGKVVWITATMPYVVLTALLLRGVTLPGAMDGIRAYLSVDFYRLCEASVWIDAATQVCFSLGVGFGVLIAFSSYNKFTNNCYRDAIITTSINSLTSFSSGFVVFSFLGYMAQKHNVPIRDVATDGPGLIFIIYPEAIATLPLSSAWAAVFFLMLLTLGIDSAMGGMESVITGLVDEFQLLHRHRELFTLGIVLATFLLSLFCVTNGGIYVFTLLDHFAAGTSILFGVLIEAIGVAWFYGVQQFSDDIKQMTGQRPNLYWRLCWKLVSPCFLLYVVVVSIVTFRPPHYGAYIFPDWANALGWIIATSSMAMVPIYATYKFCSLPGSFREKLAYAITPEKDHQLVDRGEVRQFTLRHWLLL

Target: T1, DAT Dopamine Transporter (Rattus norvegicus, UniProt P23977)
T1 construct: male wistar rats (125-250 g) are sacrificed by decapitation and striatum quickly dissected out; from tissue; host or cells: rat striatum, P2 fraction
Assay: Measurements of [3H]dopamine uptake into rat cortical synaptosomes
Format: biochemical
Method: Measurements of [^3H]Dopamine Uptake Into Rat Cortical Synaptosomes
The tissue is gently homogenised (glass teflon homogeniser) and the P2 fraction is obtained by centrifugation (1000 g, 10 minutes and 40000 g, 20 minutes, 4° C.) and suspended in 560 volumes of a modified Krebs-Ringer-phosphate buffer, pH 7.4.
Tissue 0.25 mg/well (140 μl) (original tissue) is mixed with test suspension. […] Final volume is 0.2 mL. The incubation is terminated by filtering the samples under vacuum through Whatman GF/C filters with a wash of 1×0.2 ml buffer. The filters are dried and appropriate scintillation fluid (Optiphase Supermix) is added. After storage for 2 hours in the dark the content of radioactivity is determined by liquid scintillation counting. Uptake is obtained by subtracting the non-specific binding and passive transport measured in the presence of 100 μM of benztropin. For determination of the inhibition of uptake ten concentrations of drugs covering 6 decades are used.
^3H-DA=3,4-(ring-2,5,6-^3H)dopamine hydrochloride from New England Nuclear, specific activity 30-50 Ci/mmol.

`CNC1CC(c2ccc(Cl)c(Cl)c2)c2ccccc21` (stereo not shown) [Indatraline, reference compound] gave an IC50 of 0.0001 to 0.2 µM.
